# Laboratory results from PubChem BioAssay AID488969 (Vanderbilt High Throughput Screening Facility, 2010).
# Chains of the proteins cited; added tags and fusions are not shown.
# UniProt P70579, whole entry: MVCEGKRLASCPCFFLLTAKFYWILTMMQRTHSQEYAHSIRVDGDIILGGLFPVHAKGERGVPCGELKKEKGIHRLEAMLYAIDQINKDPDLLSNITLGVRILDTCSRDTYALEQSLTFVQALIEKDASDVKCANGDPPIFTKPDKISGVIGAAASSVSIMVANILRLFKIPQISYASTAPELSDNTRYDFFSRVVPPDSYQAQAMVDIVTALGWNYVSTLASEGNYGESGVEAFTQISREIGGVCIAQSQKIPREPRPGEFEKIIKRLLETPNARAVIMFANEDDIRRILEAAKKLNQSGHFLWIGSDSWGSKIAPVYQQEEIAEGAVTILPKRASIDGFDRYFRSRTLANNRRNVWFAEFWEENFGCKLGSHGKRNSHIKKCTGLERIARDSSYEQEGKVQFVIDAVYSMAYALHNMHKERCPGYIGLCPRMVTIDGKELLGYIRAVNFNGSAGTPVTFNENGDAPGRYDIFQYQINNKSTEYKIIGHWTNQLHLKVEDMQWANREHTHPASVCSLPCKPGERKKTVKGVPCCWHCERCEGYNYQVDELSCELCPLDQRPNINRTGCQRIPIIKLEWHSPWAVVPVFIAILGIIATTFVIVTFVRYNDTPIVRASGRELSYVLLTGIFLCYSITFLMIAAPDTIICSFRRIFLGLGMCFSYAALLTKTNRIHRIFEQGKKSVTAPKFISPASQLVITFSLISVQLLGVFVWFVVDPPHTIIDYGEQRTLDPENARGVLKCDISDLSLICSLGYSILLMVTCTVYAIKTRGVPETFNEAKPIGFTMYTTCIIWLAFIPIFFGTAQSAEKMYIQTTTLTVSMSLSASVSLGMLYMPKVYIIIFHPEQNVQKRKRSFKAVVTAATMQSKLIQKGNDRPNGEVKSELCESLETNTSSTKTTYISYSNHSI
# Only a part is listed here, and it is no random draw. Some of these compounds have results that are not shown, active ones among them.
# Target: Metabotropic glutamate receptor 8 (Rattus norvegicus) (UniProt P70579)
# Experiment: rat mGluR8 modulators via GIRK flux, primary screen, cell-based, thallium flux, HTS (AID 488969)
# Conditions: HEK293 rat mGluR8, GIRK (G protein-gated inwardly rectifying potassium channel) thallium flux, FluoZin2; at 10 µM; stronger effect = higher value; submaximal glutamate (EC20) added with thallium
row,SMILES,z-score
1,CN(C)c1cccc(C(=O)NCC2(N(C)C)CCCCC2)c1,0.57
2,CC(C)N1C(=O)CC2(CCN(CCOC(=O)C(O)(c3ccccc3)c3ccccc3)CC2)C1=O,-0.14
3,CN(C)C1CCCC1OC(=O)C(O)(c1ccccc1)c1ccccc1 (stereo not drawn),1.75
